MC4R antag cAMP – MC4R antagonists of cAMP signaling, primary screen, cell-based, TR-FRET, antagonist arm of biased-ligand search; inhibition, % at 6.5 µM; 360,000 compounds, 0.48% hits; AID 540295, 2011; MC4R-expressing cells, MTII-stimulated cAMP, LANCE TR-FRET; Melanocortin receptor 4 (Homo sapiens), P32245;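 active means inhibition above its plate's cutoff, the mean of tested wells on that plate plus 3 SD, cut at about 29% in these data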
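System – human MC4R-expressing U2OS cells · Also added – Melanotan II · Dosing – one concentration, 6.5 µM nominal · Timing – 30-min compound, 1-h challenge, 1-h detection, room temperature · Measured by – Eu-cAMP/anti-cAMP TR-FRET, emission 671 nm · Replicates – singlicate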
MC4R barr agon – MC4R agonists recruiting beta-arrestin, primary screen, cell-based, luminescence, agonist arm of biased-ligand search | U2OS MC4R beta-arrestin complementation; percent of melanotan II response, DMSO zero | Melanocortin receptor 4 (Homo sapiens), P32245 | activation, % at 8.9 µM | 360,000 compounds, 0.98% hits;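 active means activation above a per-plate cutoff, the mean activation of sample wells on that plate plus 3 SD, cut at about 8% in these data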
ALR H2O2 inh – human ALR oxidase inhibition via reduced H2O2. P55789. purified ALR, DTT oxidation, H2O2 HRP-luminol luminescence. inhibition, % (no concentration beside the values). 3.8% of 290,000 active. AID 485317;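 active means mean and each replicate at 75% or more; inconclusive means only one of the two met; inactive means neither met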;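 further: stock transfer was 7.5 nL into about 7.5 µL; 0% = neutral wells and 100% = wells with inactivated enzyme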
NALP1 yeast inh – NALP1 inflammasome inhibitors in reconstituted yeast, colorimetric, S. cerevisiae, triplicate retest | S. cerevisiae NALP1/ASC/caspase-1 growth, X-gal OD620, 72 h | inhibition, % at 10 µM | 280,000 compounds, 0.61% hits; in the data active means inhibition mostly above about 24%, no sharp cut-off; inactive means mostly below about 32%
UUG fidelity – alters start codon recognition fidelity in yeast; S. cerevisiae UUG-firefly luciferase reporter, luminescence/redox ratio; activity score, % at 18.7 µM; actives 0.13% (n = 350,000); AID 602363;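 active = replicate mean at a twofold rise or more, about +100% in these data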;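 also: firefly luciferase made from a UUG start codon reports start codon fidelity; reporter light over untreated wells divided by growth signal over untreated wells; some hits fall short of that in this replicate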
HDAC3 inh – HDAC3 deacetylase inhibitors, primary screen, biochemical, fluorescence, cell-free homogeneous; inhibition, % at 8.3 µM; 320,000 compounds, 0.15% hits; recombinant HDAC3, fluorogenic peptide/trypsin coupled; Histone deacetylase 3 (Homo sapiens), O15379; in the data active means inhibition above about 26%, passing the limit was not always enough; inconclusive means no clear call, values can overlap the other calls
Large screens that a line does not name were inactive. An excerpt weighted towards active compounds, which were near 4.2% of everything screened.

Sequences of proteins named here, by UniProt entry; tags and fusion partners are left off.
Melanocortin receptor 4 (Homo sapiens), P32245, UniProt P32245, whole entry, looked up: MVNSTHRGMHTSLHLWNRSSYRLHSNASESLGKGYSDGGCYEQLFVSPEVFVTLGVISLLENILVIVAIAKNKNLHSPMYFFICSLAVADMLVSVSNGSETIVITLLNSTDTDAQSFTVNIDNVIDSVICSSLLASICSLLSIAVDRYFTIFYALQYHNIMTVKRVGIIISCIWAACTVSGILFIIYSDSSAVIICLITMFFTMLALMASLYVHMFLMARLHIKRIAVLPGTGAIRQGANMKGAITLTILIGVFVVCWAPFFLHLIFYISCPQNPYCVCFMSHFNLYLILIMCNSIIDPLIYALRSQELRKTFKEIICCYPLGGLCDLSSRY

COc1c(-c2ccc(O)cc2)oc2cc(O)cc(O)c2c1=O	ALR H2O2 inh 98
COc1ccc(-c2oc3cc(OC)c(O)c(OC)c3c(=O)c2OC)cc1O	ALR H2O2 inh 100
CC(=O)Oc1cc(O)c2c(=O)c(OC(C)=O)c(-c3ccc(OC(C)=O)c(OC(C)=O)c3)oc2c1	ALR H2O2 inh 82 (no result: NALP1 yeast inh)
CN1c2ccc(-c3ccccc3)cc2[C@H]2[C@H](CCN2C(=O)c2ccccc2)[C@@H]1CO	none (no result: MC4R antag cAMP, MC4R barr agon, ALR H2O2 inh, NALP1 yeast inh, HDAC3 inh)
CC/C(=N\NC(=O)c1ccc(-c2ccccc2)cc1)C12CC3CC(CC(C3)C1)C2	ALR H2O2 inh 98
O=C1CC(N2CCN(c3ccccc3)CC2)C(=O)N1CCc1ccccc1 (stereo unspecified)	ALR H2O2 inh 95
CN1C(=O)CC(N2CCN(c3ccccc3)CC2)C1=O (stereo unspecified)	ALR H2O2 inh 94 (no result: NALP1 yeast inh)
C[C@H]1CCCCO[C@@H](CN(C)Cc2ccccc2)[C@@H](C)CN([C@@H](C)CO)C(=O)c2cc(NC(=O)Nc3cccc4ccccc34)ccc2O1	none (no result: MC4R antag cAMP, MC4R barr agon, ALR H2O2 inh, NALP1 yeast inh, HDAC3 inh)
Cc1ccc(-c2ccc3c(c2)O[C@@H](CN(C)C(=O)C2CC2)[C@H](C)CN([C@H](C)CO)S3(=O)=O)cc1	none (no result: MC4R antag cAMP, MC4R barr agon, ALR H2O2 inh, NALP1 yeast inh, HDAC3 inh)
O=C(CN1CCOCC1)NCC[C@H]1CC[C@@H](NC(=O)Cc2ccccn2)[C@@H](CO)O1	none (no result: MC4R antag cAMP, MC4R barr agon, ALR H2O2 inh, NALP1 yeast inh, HDAC3 inh)
CCN(C(=O)c1sc(N)c(C#N)c1C)C1CCCCC1	ALR H2O2 inh 96
CCOC(=O)c1sc(N)c(C#N)c1CSc1nnc(C2CCCCC2)n1N	none (no result: ALR H2O2 inh)
Cc1noc(C)c1NC(=O)N(C)C[C@H]1Oc2ncc(/C=C/c3ccccc3)cc2C(=O)N([C@@H](C)CO)C[C@@H]1C	none (no result: MC4R antag cAMP, MC4R barr agon, ALR H2O2 inh, NALP1 yeast inh, HDAC3 inh)
CC(=O)Oc1ccc(C(=O)c2ccccc2)c(OC(C)=O)c1	ALR H2O2 inh 98 (no result: UUG fidelity)
NC(=O)Nc1ccc(Nc2ccccc2)cc1	ALR H2O2 inh 99 (no result: UUG fidelity)
COC(=O)c1cccc(NC(=S)Nc2cc(Cl)ccc2OC)c1	none (no result: UUG fidelity)
COc1cc(C(=O)Nc2cccc(C(C)=O)c2)cc(OC)c1OC	none (no result: UUG fidelity)
COC(=O)c1cccc(NC(=O)Nc2ccc(Cl)cc2Cl)c1	MC4R barr agon 9.0, HDAC3 inh inconclusive (no result: UUG fidelity)
COc1cc(NC(=O)Nc2cccc(C(C)=O)c2)cc(OC)c1OC	ALR H2O2 inh 98 (no result: NALP1 yeast inh)
CCC(=O)Nc1ccc(Nc2ccccc2)cc1	none (no result: ALR H2O2 inh, HDAC3 inh)
O=C(Nc1ccc(Nc2ccccc2)cc1)C(Cl)(Cl)Cl	ALR H2O2 inh 95 (no result: UUG fidelity)
CC(=O)c1ccc(NC(=O)c2cccc(NC(=O)c3ccccc3)c2)cc1	MC4R barr agon 8.4
O=C(Nc1ccc(Nc2ccccc2)cc1)C(Cl)Cl	ALR H2O2 inh 92 (no result: UUG fidelity)
O=C(O)[C@H]1CCCC[C@H]1C(=O)Nc1ccc(Nc2ccccc2)cc1	ALR H2O2 inh 98
CC(C)c1ccc(NC(=O)C2CCCCC2C(=O)O)cc1 (stereo unspecified)	none
COCC#Cc1cnc2c(c1)C(=O)N([C@H](C)CO)C[C@H](C)[C@@H](CN(C)Cc1ccccc1F)O2	none (no result: MC4R antag cAMP, MC4R barr agon, ALR H2O2 inh, NALP1 yeast inh, HDAC3 inh)
CCCNC(=O)N(C)C[C@H]1Oc2ncc(-c3ccncc3)cc2C(=O)N([C@H](C)CO)C[C@H]1C	none (no result: MC4R antag cAMP, MC4R barr agon, ALR H2O2 inh, NALP1 yeast inh, HDAC3 inh)
CCOc1ccc(OCCC(=O)OC(C)C(=O)Nc2ccc(C(C)=O)cc2)cc1 (stereo unspecified)	none
CC(=O)Oc1ccc(Nc2ccccc2)cc1	ALR H2O2 inh 99 (no result: UUG fidelity)
CC(=O)Nc1ccc(NC(=O)C(C)OC(=O)COc2ccc(Nc3ccccc3)cc2)cc1 (stereo unspecified)	ALR H2O2 inh 99 (no result: NALP1 yeast inh)
O=C(Nc1ccc(Nc2ccccc2)cc1)c1ccccc1	ALR H2O2 inh 90 (no result: MC4R antag cAMP, MC4R barr agon, NALP1 yeast inh, UUG fidelity)
CC(=O)Oc1ccc(NC(=O)Cc2ccccc2)cc1	none
O=C(CNS(=O)(=O)c1ccc2ccccc2c1)OCc1csc(-c2ccccc2)n1	ALR H2O2 inh 99 (no result: UUG fidelity)
O=C(CNS(=O)(=O)c1c(Cl)cccc1Cl)OCc1csc(-c2ccccc2)n1	none (no result: ALR H2O2 inh, UUG fidelity)
